In brackets after ≈: the same amount, converted by molar mass.
Experiment: Solubility of sEHI
Format: physicochemical
Conditions: phosphate buffered saline, pH 7.4; in PBS; read-out: water solubility
Protocol: […] The non-dissolved compounds were filtered through a 0.22 μm centrifuge filter at 40°C and the supernatant was further diluted 10 times with methanol. The samples were analyzed by LC/MS-MS.

O=C(Nc1ccc(OC(F)(F)F)cc1)N[C@H]1CC[C@H](Oc2ccc(C(=O)O)cc2)CC1 [EC1728, trans-4-{4-[3-(4-trifluoromethoxy-phenyl)-ureido]-cyclohexyloxy}-benzoic acid]
solubility at 24 h: 5 µg/mL (≈ 11.4 µM)

From paper PMC6554663, “Pharmaceutical Effects of Inhibiting the Soluble Epoxide Hydrolase in Canine Osteoarthritis” (Frontiers in Pharmacology, 2019)
